System: Caco-2 cells

Penetration into the cell layer | Substance
hardly penetrated | hyaluronic acid [high-molecular weight hyaluronic acid]
16.0% | hyaluronic acid [low-molecular weight hyaluronic acid]

From patent US8426383B2, “Anti-aging composition for external use comprising low and high molecular weight hyaluronic acids and the polysaccharides extracted from root bark of Ulmus davidiana” (Bioland Ltd., priority 2008, dated 2013)
